## Yeast mating assay B: variants of the scFv Ab-14

Reference: Li et al. 2023, doi:10.1038/s41467-023-39022-2. File: FLAb, binding data.

Target peptide (SARS-CoV-2 spike, HR2 region): PDVDLGDISGINAS

The variants keep the heavy chain, the linker and the frameworks of Ab-14 (scFv order VH, three GGGGS repeats, VL).
VH: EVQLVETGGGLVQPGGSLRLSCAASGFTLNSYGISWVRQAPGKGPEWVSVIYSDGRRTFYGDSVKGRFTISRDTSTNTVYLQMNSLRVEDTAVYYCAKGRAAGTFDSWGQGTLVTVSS
VL: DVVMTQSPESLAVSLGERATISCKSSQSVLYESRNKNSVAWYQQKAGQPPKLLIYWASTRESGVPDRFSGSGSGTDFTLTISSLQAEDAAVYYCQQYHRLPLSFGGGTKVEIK

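The starting antibody came from a phage panning campaign against this peptide. The variants were designed computationally from a first round of random CDR variants and then made and measured. Their group label is 14L_GP_HC (GP: Gaussian process model; HC: hill climbing; a sequence that several methods proposed may carry one label only). In AlphaSeq, yeast of one mating type display the scFv and yeast of the other type display the target. Binding brings cells together so that they mate, and sequencing counts the barcode pairs among the diploids. Scores were corrected for input abundance and mapped to Kd with protein pairs of known affinity run in the same pool. Each pool was mated in six replicate cultures.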

Variants are written as CDR1, CDR2 and CDR3 of the light chain (limits as in the source). Parent: KSSQSVLYESRNKNSVA, WASTRES, QQYHRLPLS.
The read-out is the apparent dissociation constant on a log10 scale (nM): the lower, the stronger.
An entry "nd" has no value in the source: the pair was not observed among the diploids in that replicate. This suggests poor binding but is not conclusive.

For KSSVSYLYESRNTNSVA | EASTRES | QQYHRLPLS, the assay gave 0.16, 0.09, -0.18, -0.15, 0.16, -0.21 (controls 1 of 18).
For KVLQSVCYEGRNKNSVA | HASTRED | QQYHRLPLS, the assay gave 0.40, 0.32, 0.00, 0.49, 0.31, 0.25 (controls 0 of 18).
For KVSGSYLLESRNKNSVA | EARTRES | QQYHRLPLS, the assay gave 0.09, -0.02, -0.26, -0.37, -0.27, -0.12 (controls 1 of 18).
For KFEQGVLYESRNKNSVA | GASTRES | QQYHRLPLS, the assay gave 0.18, 0.21, 0.14, -0.02, 0.02, 0.33 (controls 1 of 18).
For KFSQWSLYESRTKNSVA | NASTRES | QQYHRLPLS, the assay gave 0.58, 0.70, -0.08, -0.08, 0.43, 0.03 (controls 1 of 18).
For KILQSVLYESRNKNSVA | HASTREQ | QQYHFLPLS, the assay gave 0.40, 0.36, 0.28, 0.37, 0.66, 0.58 (controls 0 of 18).
For KLDNSTLYESRQKNSVA | WASTRES | QQYHRLPLS, the assay gave 1.41, 0.51, 0.98, 1.10, 1.80, 0.86 (controls 0 of 18).
For KFSQEVLFESRNKNSVA | DASTRES | QQYHRLPLS, the assay gave -0.41, -0.77, -0.59, -0.82, -0.61, -0.72 (controls 0 of 18).
For KLDQGELYESRNKNSVA | GASTRES | QQYHRLPLS, the assay gave -0.14, -0.21, -0.35, -0.32, -0.23, -0.28 (controls 0 of 18).
For KSSISYLYESRNKNSVA | NGSTRES | QQYHRLPLS, the assay gave -0.02, -0.15, 0.03, -0.26, 0.08, -0.02 (controls 1 of 18).
For KWSQSVLFQSRNKNSVA | DASTRES | QQYHRLPLS, the assay gave 0.56, 0.13, -0.06, -0.20, -0.04, 0.06 (controls 1 of 18).
For KSSISYLYESENKMSVA | EASQRES | QQYHRLPLS, the assay gave nd, 1.49, nd, nd, nd, nd (controls 0 of 18).
For KSSQSVAGESRNANSVA | DASTRES | QQYHRLPLS, the assay gave 0.47, 0.09, 0.02, 0.19, 0.25, 0.18 (controls 0 of 18).
For KMSQSVLMEERNKNSVA | DASLRES | QQYHRLPLS, the assay gave 0.42, 0.27, 0.11, -0.01, 0.30, -0.01 (controls 2 of 18).
For KSSWSVLYESFNKNSVA | HASTRED | QQYHRLPLS, the assay gave nd, 1.97, nd, 2.41, nd, nd (controls 0 of 18).
For KFSQSVLYESRTSNAVA | NASTRES | QQYHRLPLS, the assay gave 0.68, 0.31, 0.28, 0.20, 0.15, 0.22 (controls 0 of 18).
For KSQQSFLYESRNVNSVA | GASTRES | QQYHRLPLS, the assay gave 0.11, -0.18, -0.31, -0.23, -0.44, -0.09 (controls 1 of 18).
For KVSQSWLLESRNKNSVA | EASTRQS | QQYHRLPLS, the assay gave -0.25, -0.20, -0.53, -0.48, -0.51, -0.34 (controls 1 of 18).
For KSPQSELYESRNKNSVA | HASTRED | QSYHRLPLS, the assay gave 1.73, 1.17, 2.28, 1.32, 0.90, 1.48 (controls 1 of 18).
For KSSPSVLYESHNKNSVA | NASTRMS | QQYHRLPLS, the assay gave -0.33, -0.51, -0.67, -0.75, -0.79, -0.24 (controls 0 of 18).
For KQSQQKLYESRNKNSVA | DASTRES | QQYHRLPLS, the assay gave -0.03, -0.03, -0.37, -0.28, -0.41, -0.17 (controls 1 of 18).
For KSGTGDLYESRNKNSVA | GASTRES | QQYHRLPLS, the assay gave -0.32, -0.15, -0.14, -0.48, -0.14, -0.06 (controls 0 of 18).
For KLPNSTLYESRQKNSVA | SASTRES | QQYHRLPLS, the assay gave 0.67, 0.57, 0.78, 0.91, 0.77, 0.83 (controls 2 of 18).
For KSQQSVLYESRNKNSVA | HASTRED | QQYGRLPLS, the assay gave 0.37, 0.05, 0.05, -0.01, 0.09, 0.25 (controls 0 of 18).
For KFSQSVLYESRTYNSVA | NASTRES | QQYHRLPLS, the assay gave 0.36, 0.24, 0.22, 0.24, 0.22, 0.68 (controls 0 of 18).
For KSSQSILYESGNKNSVA | NASTRES | QQYHRLPLS, the assay gave 0.28, 0.14, 0.19, 0.01, 0.10, 0.31 (controls 0 of 18).
For KLPNSTLYESRNKNSVA | WASTRES | QQYHRLPLS, the assay gave 0.61, nd, 0.91, 2.52, 0.25, 0.60 (controls 0 of 18).
For HSSPSVKYESRNKNSVA | NASTRES | QQYHRLPLS, the assay gave 0.14, 0.04, 0.12, -0.28, -0.01, 0.19 (controls 1 of 18).
For HLSDSVLYESRNKNSVA | NASTRES | QQYHRLPLL, the assay gave -0.09, -0.19, -0.29, -0.38, -0.30, -0.06 (controls 1 of 18).
For KSSQSFLYESRNKNSVA | GASTRES | QDYHRLTLS, the assay gave nd, nd, nd, nd, nd, nd (controls 0 of 18).
For KFSQSVLYESRTKNSVA | EASTRES | QQYHQLPLS, the assay gave 0.05, 0.02, 0.05, 0.08, 0.04, 0.22 (controls 0 of 18).
For KSSQSFLPESRNKNSVA | GASTRES | QQYHRLPLS, the assay gave 0.23, 0.42, 0.38, 0.33, 0.24, 0.27 (controls 0 of 18).
For KSSQVYEYESRNKNSVA | GASTRES | QQYHRLPLS, the assay gave 0.16, 0.22, -0.05, 0.10, 0.06, 0.42 (controls 1 of 18).
For KSQQSWLYESRNKNNVA | HASTRED | QQYARLPLS, the assay gave 0.95, 1.09, 1.35, 0.73, 1.23, 0.58 (controls 0 of 18).
For KSSQSWLYESRNKNSVA | GASFRES | QQYHRLPLS, the assay gave 0.28, 0.21, 0.30, 0.30, 0.33, 0.40 (controls 0 of 18).
For KYSQSTLCESRNKNSVA | DASTRES | QQYHRLPLS, the assay gave -0.11, -0.18, -0.04, -0.22, -0.10, 0.06 (controls 1 of 18).
For KSSISYLYESMNPNSVA | EASTREQ | QQYHRLPLS, the assay gave 0.21, 0.03, -0.08, 0.20, -0.21, -0.07 (controls 0 of 18).

Picked from the list: the 4 lowest averages where every replicate gave a value.

{"CDR-L1": "KFSQEVLFESRNKNSVA", "CDR-L2": "DASTRES", "CDR-L3": "QQYHRLPLS", "log10 Kd (nM) by replicate": "-0.41, -0.77, -0.59, -0.82, -0.61, -0.72", "signal with controls": "0 of 18"}
{"CDR-L1": "KSSPSVLYESHNKNSVA", "CDR-L2": "NASTRMS", "CDR-L3": "QQYHRLPLS", "log10 Kd (nM) by replicate": "-0.33, -0.51, -0.67, -0.75, -0.79, -0.24", "signal with controls": "0 of 18"}
{"CDR-L1": "KVSQSWLLESRNKNSVA", "CDR-L2": "EASTRQS", "CDR-L3": "QQYHRLPLS", "log10 Kd (nM) by replicate": "-0.25, -0.20, -0.53, -0.48, -0.51, -0.34", "signal with controls": "1 of 18"}
{"CDR-L1": "KLDQGELYESRNKNSVA", "CDR-L2": "GASTRES", "CDR-L3": "QQYHRLPLS", "log10 Kd (nM) by replicate": "-0.14, -0.21, -0.35, -0.32, -0.23, -0.28", "signal with controls": "0 of 18"}

Nonspecific signal, from three strains lacking the peptide, appeared in 4% of pairings of all light chain designs, centred on 2.64 (5% of these signals below 1.59); values are not corrected for it. Also given: how often the same scFv was detected with the empty control strains.
A sequence measured in both rounds can read differently, since the two assays cover different ranges.
In the paper, a design with two or fewer of six values counts as a poor binder.
Of ten entries with the parent sequence, four were seen in most replicates (averages 0.34 to 2.37), three in one and three in none, so single entries are noisy.